This is an account of results in publication PMC4598118 (PLoS ONE, 2015).

Protein sequences, listed by entry. Tags and fused reporters are not part of them. Residues count along the entry.
UniProt Q6A2E2, 129-702 limits assumed: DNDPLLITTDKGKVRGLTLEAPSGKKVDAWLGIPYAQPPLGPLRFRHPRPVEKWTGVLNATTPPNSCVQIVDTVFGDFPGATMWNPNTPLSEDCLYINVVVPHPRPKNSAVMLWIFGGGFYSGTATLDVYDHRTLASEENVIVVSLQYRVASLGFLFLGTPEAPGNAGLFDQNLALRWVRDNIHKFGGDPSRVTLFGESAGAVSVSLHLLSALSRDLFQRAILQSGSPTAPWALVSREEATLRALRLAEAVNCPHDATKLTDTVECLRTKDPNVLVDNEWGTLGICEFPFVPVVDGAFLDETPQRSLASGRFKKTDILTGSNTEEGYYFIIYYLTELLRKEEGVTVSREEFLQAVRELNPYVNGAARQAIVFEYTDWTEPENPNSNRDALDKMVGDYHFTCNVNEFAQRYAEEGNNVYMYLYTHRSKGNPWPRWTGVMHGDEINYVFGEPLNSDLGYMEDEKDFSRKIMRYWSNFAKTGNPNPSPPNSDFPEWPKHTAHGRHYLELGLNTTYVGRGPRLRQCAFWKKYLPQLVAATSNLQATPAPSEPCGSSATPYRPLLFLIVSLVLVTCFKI

This assay concerns the target Aedes aegypti AChE1 (AaAChE1) (Aedes aegypti, UniProt Q6A2E2). Description: Michaelis-Menten kinetics, Ellman assay. The assay is classed as biochemical. As to conditions: from Vmax and VX active site titration. On the technique in general: Ellman's reagent forms a yellow product with free thiols.
As for `CC(=O)SCC[N+](C)(C)C` [ATChI, acetylthiocholine iodide], the Kcat turned out to be 140 s⁻¹.
For `CCCC(=O)SCC[N+](C)(C)C` [BTChI, butyrylthiocholine iodide], the Kcat is 13 s⁻¹.
Molecule `CCC(=O)SCC[N+](C)(C)C` [PTChI, propionylthiocholine iodide] showed a Kcat of 92 s⁻¹.
